# Measured affinities in a library of Ab-14 light chain variants

The measurements come from Li et al. 2023 (doi:10.1038/s41467-023-39022-2) through the FLAb antibody collection.

Antigen: PDVDLGDISGINAS, a 14-residue peptide of the SARS-CoV-2 spike HR2 region.

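The parent was found by panning a naive human phage display library on the peptide. This is the validation round: designs drawn from the data on random variants, tested in the same kind of assay. Several design methods are mixed in this list. The scFvs were displayed on barcoded MATa yeast, the peptide on MATalpha yeast. Mating (16 h, 30 °C) was followed by selection of diploids and sequencing of their barcodes. The ratio of observed to expected reads was calibrated, replicate by replicate, on BCL2-family standards whose Kd was known from biolayer interferometry. The assay was run in six technical replicates.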

Parent: Ab-14, a human scFv built as VH, a (GGGGS)3 linker, VL. Only the CDRs of the light chain vary.
VH: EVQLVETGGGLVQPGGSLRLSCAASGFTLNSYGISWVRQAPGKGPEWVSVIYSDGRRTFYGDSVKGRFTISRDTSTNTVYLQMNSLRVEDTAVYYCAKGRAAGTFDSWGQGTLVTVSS
VL: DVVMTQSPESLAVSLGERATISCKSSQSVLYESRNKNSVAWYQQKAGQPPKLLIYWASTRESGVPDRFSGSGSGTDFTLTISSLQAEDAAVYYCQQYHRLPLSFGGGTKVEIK

The parent's light chain CDRs are KSSQSVLYESRNKNSVA, WASTRES, QQYHRLPLS; each variant's own CDRs replace them letter for letter.
Numbers give log10(Kd / nM), so 0 is 1 nM and 3 is 1 µM. Smaller is tighter.
Where no diploid with the target was found in that replicate, the entry reads "nd": below detection, most likely a poor binder, though not proof of it.
The authors' rule: three or more of the six replicates give a measured affinity, fewer mean a poor binder.
Of ten entries with the parent sequence, four were seen in most replicates (averages 0.34 to 2.37), three in one and three in none, so single entries are noisy.
Some sequences occur more than once in the pool; their replicates are listed entry by entry, parted by semicolons.
Values of this round are not directly comparable with the first-round values of the same sequences.
Background: pairings of all light chain designs with three empty control strains gave a value in 4% of cases (median 2.64, 5th percentile 1.59). Values in that range, when seen in few replicates, are hard to tell from nonspecific mating. For each scFv, signals with the empty controls are counted beside the result.

1.15, 1.71, 0.90, 1.67, 1.08, 0.74 (controls 1 of 18) for HVSMLTLGGLRNRNSVA / QMTTREN / QQYDRLPLA.
0.11, -0.11, 0.07, -0.21, -0.03, 0.02 (controls 1 of 18) for KVSQSVPYESRNKNSVA / DASQRES / QQYHRLPLS.
0.42, 0.41, 0.38, 0.33, 0.21, 0.32 (controls 6 of 18) for HITMGMYVSGRHMSNIA / QAEERAK / QQYDRLPLI.
0.14, 0.00, -0.05, 0.04, 0.26, 0.17 (controls 0 of 18) for AMQMERLGQKQYQNNIA / NQDLRTA / QQYYMLPLV.
0.00, -0.09, 0.28, -0.17, -0.09, 0.07 (controls 0 of 18) for KLRQSYLYESRNKNSVA / QASTRES / QQYHRLPLT.
2.06, 1.02, nd, 1.75, 1.98, 1.91 (controls 1 of 18) for MIFYGQERDIAHESSIA / NDMARVK / QQYHRLPLS.
2.21, 1.83, 1.94, 1.54, 3.02, 1.89 (controls 1 of 18) for RSSQSVLYESRNKNSVA / WASTRED / QQYHRLPLS.
0.13, -0.07, 0.01, -0.17, -0.18, 0.14 (controls 0 of 18) for KISQEYLGESRNMNSVA / NASTREQ / QQYHRLPLS.
nd, nd, nd, nd, nd, nd (controls 0 of 18) for KSSKSVLYEDRNLNHVA / WASMRES / QQYHRLALS.
nd, 1.60, 1.93, nd, nd, 1.33 (controls 1 of 18) for KLSMNQEGQLNKGQSVA / GASEVCI / QQFYRLPLV.
0.98, 0.72, 0.73, 0.64, 1.06, 1.18 (controls 2 of 18) for KSSQSVLDESRNKNSIA / WASTRES / QQYVRLPLS.
0.55, 0.60, 0.41, 0.75, 0.54, 0.60 (controls 1 of 18) for KITSHEWHGTADNSAMA / NADVSHD / QQYSRLPLF.
1.23, 1.51, 1.50, 0.74, 1.86, 1.37 (controls 0 of 18) for KQSQSQLYEDGNGNSVA / NASVRED / QQYHRLPLS.
1.42, 1.69, 1.22, 1.11, 1.35, 1.40 (controls 2 of 18) for KSGQGVLYFSRNKNSVA / GASGRES / QQYHRLPLS.
-0.25, -0.27, -0.53, -0.49, -0.40, -0.13; -0.64, -0.53, -0.60, -0.48, -0.66, -0.31 (controls 1 of 36) for KLSQSVLYESRNKNSVA / QASTREE / QQYHRLPLS.
0.03, -0.08, 0.24, -0.33, -0.06, 0.26 (controls 0 of 18) for ALSQMMDMTSRNKNSVA / DLSTREN / QQYHRLPLS.
0.80, 2.20, 1.55, 2.00, 2.43, 1.49 (controls 0 of 18) for KSSQSVPPESRNKNSVA / WASTRES / QQYHRLPLS.
-0.44, -0.56, 0.03, -0.49, 0.20, -0.22 (controls 0 of 18) for MYSQSYGGEQRNKNSVA / HASTREE / QQYHRLPLS.
0.69, 0.42, 0.36, 0.51, 0.46, 0.56 (controls 2 of 18) for MMSQVTGMGTRHRNNVA / QTSMREP / QQYDRLPLV.
-0.14, -0.17, 0.06, -0.04, -0.14, 0.07 (controls 1 of 18) for KLRMSMLYESRNKNSVA / NASTRES / QQYHRLPLS.
1.06, 1.04, 1.15, 1.29, 1.77, 1.93 (controls 0 of 18) for KSSQSPYYESRNKNSVA / AASTRES / AQYHRLPLF.
0.46, 0.61, 0.52, 0.35, 0.36, 0.66 (controls 1 of 18) for KISQSEPYEDRNFNSVA / NASYRCS / QQYHRLPLS.
0.47, 0.39, 0.42, 0.14, 0.20, 0.31 (controls 3 of 18) for HINDMLFGDTKIAHSIA / NTGVTSR / QQYSRLPLI.
0.53, 0.82, 0.50, 0.87, 0.42, 0.87 (controls 0 of 18) for KSSQSVLYESLNKNSVA / AASTRES / QQYHRLPLS.
0.67, 0.46, 0.52, 0.57, 0.51, 0.41 (controls 1 of 18) for KSSQSLSYTSRNKQSVA / EASTRES / QQYHRLPLS.
nd, nd, nd, 2.71, nd, nd (controls 0 of 18) for KLLQTVMNGRRNRNNVA / HMTMRED / QQYFRLPLS.
0.02, -0.16, -0.12, -0.09, -0.16, 0.02 (controls 1 of 18) for KLQQSELGLSRNMNSVA / HASTRES / QQYHRLPLS.
-0.33, -0.31, -0.52, -0.64, -0.34, -0.33 (controls 0 of 18) for KLSQSVLYESRNKNSVA / NASTRED / QQYHRLPLM.
0.03, -0.10, -0.32, -0.28, -0.47, -0.19 (controls 0 of 18) for KCDQSWDYESRNKNNVA / NASQRES / QQYHRLPLS.
-0.26, -0.21, -0.40, -0.37, -0.44, 0.02 (controls 1 of 18) for KFSQQVLYESRAMNSVA / DASQRLS / QQYHRLPLS.
nd, 1.67, nd, 1.70, nd, 3.89 (controls 1 of 18) for CSSQSVLYESKNKNSVA / YASTREC / QQYHRLPLS.
0.25, 0.02, 0.08, 0.18, -0.10, 0.16 (controls 0 of 18) for QIYQAMHTLSQAKDNVA / DVNERGQ / QQYFRLPLS.
0.53, 0.42, 0.48, 0.07, 0.44, 0.35 (controls 0 of 18) for KSFFSVPGESRNKNSVA / EASTRES / QQYHRLPLS.
0.43, 0.38, 0.31, 0.23, 0.16, 0.23 (controls 4 of 18) for KWSQSVLMESRNCNSVA / DASTRES / QQYHRLPLS.
0.49, 0.61, 0.63, 0.88, 0.56, 0.85 (controls 2 of 18) for NLSLNHENYGEDMQSIA / QAQTLAF / QQYHHLPLM.
1.69, 1.36, 1.29, 1.35, 1.14, 1.42 (controls 1 of 18) for ILSQMLLTAGNKHSSVA / QANNRED / QQYHRLPLS.
0.24, 0.09, 0.01, -0.02, 0.11, 0.19 (controls 2 of 18) for KIGQLTTYHSQMGNSIA / QTSTREE / QQYHRLPLS.
1.27, 1.26, 1.38, 1.48, 0.91, 0.83 (controls 1 of 18) for KSSQSGLNESRNKNSVA / SASTRES / QQYHRLPLS.
0.48, 0.35, 0.24, 0.27, 0.21, 0.37 (controls 1 of 18) for KSSQSVLYESRNKNSVA / GASVRED / QQYHRLPLS.
0.37, 0.16, -0.03, -0.05, 0.11, 0.28 (controls 0 of 18) for KSEDGVDDESRNDNSVA / NASTRES / QQYHRLPLS.
0.44, -0.02, -0.08, 0.04, -0.12, 0.35 (controls 1 of 18) for KSSISKLYESMNKNSVA / EASTRES / QQYHRLPLS.
2.55, 2.58, 1.78, 3.44, 1.50, 2.00 (controls 0 of 18) for MFSQGVMVGWLTRNSVA / NSSTREQ / QQYHRLPLS.
nd, nd, nd, nd, nd, nd (controls 0 of 18) for KLSQSVLYVSRNKNSVA / WASTRES / QQYHRLPLS.
-0.24, -0.48, -0.47, -0.43, -0.45, -0.37 (controls 1 of 18) for KVSASYLLESRNKNSVA / EASTRES / QQYHRLPLS.
1.68, 2.09, 2.10, 2.01, 1.95, 1.73 (controls 0 of 18) for KSSDSVLDESRNKNSVA / WASKRES / QQYHRLPLS.

Excerpt, the first 6 entries:

CDR-L1,CDR-L2,CDR-L3,"replicates, log10 nM",signal with controls
HVSMLTLGGLRNRNSVA,QMTTREN,QQYDRLPLA,"1.15, 1.71, 0.90, 1.67, 1.08, 0.74",1 of 18
KVSQSVPYESRNKNSVA,DASQRES,QQYHRLPLS,"0.11, -0.11, 0.07, -0.21, -0.03, 0.02",1 of 18
HITMGMYVSGRHMSNIA,QAEERAK,QQYDRLPLI,"0.42, 0.41, 0.38, 0.33, 0.21, 0.32",6 of 18
AMQMERLGQKQYQNNIA,NQDLRTA,QQYYMLPLV,"0.14, 0.00, -0.05, 0.04, 0.26, 0.17",0 of 18
KLRQSYLYESRNKNSVA,QASTRES,QQYHRLPLT,"0.00, -0.09, 0.28, -0.17, -0.09, 0.07",0 of 18
MIFYGQERDIAHESSIA,NDMARVK,QQYHRLPLS,"2.06, 1.02, nd, 1.75, 1.98, 1.91",1 of 18